Target: CDK2 (Homo sapiens, UniProt P24941)
Experiment: CDK2 degradation in MKN1 cells (AlphaLISA)
Settings: for CDK2 degradation 14 h: Average Dmax %: 14 h incubation; for DC50: read-out: CDK2 degradation 14 h: Mean external-Abs DC50, 14 h incubation
Experimental: Degradation of CDK2 in MKN1 cells was measured using AlphaLISA technology (PerkinElmer ALSU-TCDK2-A10K). MKN1 cells were maintained in RPMI1640 medium containing 10% FBS+1× penn/strep. Cells were seeded in 96-well plates (Corning 3599) at a density of 2e4 cells per well in 80 μL of fresh complete growth medium. Cells were incubated overnight at 37° C., 5% CO2. Compounds were then added to the cell assay plates with a final top concentration of 10 μM in a 1:5 dilution series with a total of 11 doses (0.001 nM-10 μM). The final volume per well was 160 μL and the final DMSO concentration was 0.1%. Additionally, wells containing no cells and only complete growth medium were also maintained on the cell assay plates (‘no cell’ wells) and processed along with experimental wells. After 14 hour-incubation at 37° C., 5% CO2, the medium was removed and the cells were washed once with 100 μL of 1×PBS. Following removal of PBS, 40 μL of 1× Lysis Buffer containing 1× protease and phosphatase inhibitors (Roche 4693116001; Roche 4906837001) were added to each well. The cell assay plate was agitated on a plate shaker at 350 rpm for 10 minutes at room temperature. 10 μL of each cell lysate were transferred to a 384-well plate (PerkinElmer 6007290). 10 μL of control lysates (from PerkinElmer ALSU-TCDK2-A10K kit) were added to separate wells to generate a standard curve. Activation Buffer was prepared by diluting 25-fold in combined Reaction Buffer 1 and Reaction Buffer 2. Acceptor Beads were diluted 50-fold in combined Reaction Buffers. 5 μL of Acceptor Mix were added to each well. The plate was sealed with Topseal-Aadhesive film, covered with foil, and incubated in the dark for 1 hour at room temperature. Under subdued light, the Donor Beads were diluted 50-fold in Dilution Buffer. 5 μL of Donor Mix were added to each well under subdued light. The plate was sealed with Topseal-A adhesive film, covered with foil, and incubated in the dark for 1 hour at room temperature. Under subdued light, the plates were analyzed on an EnVision Microplate Reader (PerkinElmer Model 2009-0030). The average signal from ‘no cell’ wells was subtracted from the signal in experimental wells prior to calculating Alpha signal for test compounds and negative control (0.100 DMSO). The data were analyzed using Xlfit (v5.3. 1.3) and the dose-dependent CDK2 degradation data were fit using a four-parameter logistic model to calculate DC50.

Row | Compound | CDK2 degradation 14 h: Average Dmax % | DC50 [nM]
1 | Cc1cc(S(=O)(=O)NC23CCC(CN4CCN(c5ccc(C6CCC(=O)NC6=O)c(F)c5)CC4)(CC2)C3)ccc1Nc1ncc(C(F)(F)F)c(N2CCC[C@](C)(O)C2)n1 (some centres unmarked) | A (A (>75% o)) | < 100
2 | Cc1cc(S(=O)(=O)NC2CC(CN3CCN(c4ccc(C5CCC(=O)NC5=O)c(Cl)c4)CC3)C2)ccc1Nc1ncc(C(F)(F)F)c(N2CCCC(C)(O)C2)n1 (single isomer, unassigned) | A (A (>75% o)) | < 100
3 | Cc1cc(S(=O)(=O)N[C@H]2CC[C@H](CN3CCN(c4ccc(C5CCC(=O)NC5=O)c(F)c4)CC3)CC2)ccc1Nc1ncc(C(F)(F)F)c(N2CCC[C@](C)(O)C2)n1 (some centres unmarked) | A (A (>75% o)) | < 100
4 | Cc1cc(S(=O)(=O)N[C@H](C)CO[C@H]2C[C@H](CN3CCN(c4cccc5c4n(C)c(=O)n5C4CCC(=O)NC4=O)CC3)C2)ccc1Nc1ncc(C(F)(F)F)c(N2CCC[C@](C)(O)C2)n1 (some centres unmarked) | A (A (>75% o)) | < 100
5 | Cc1cc(S(=O)(=O)C2CC3(CCN(CC4CCN(c5ccc6c(c5F)n(C)c(=O)n6C5CCC(=O)NC5=O)CC4)CC3)C2)ccc1Nc1ncc(C(F)(F)F)c(N2CCC[C@@](C)(O)C2)n1 (some centres unmarked) | C (C (>25% -50%)) | > 1000
6 | Cc1cc(S(=O)(=O)C2CC3(CCN(CC4CCN(c5ccc6c(c5F)n(C)c(=O)n6C5CCC(=O)NC5=O)CC4)CC3)C2)ccc1Nc1ncc(C(F)(F)F)c(N2CC[C@H](C(C)(C)O)C2)n1 (some centres unmarked) | A (A (>75% o)) | < 100
7 | Cc1cc(S(=O)(=O)N[C@H]2CC[C@@H](OC3CCN(c4ccc(C5CCC(=O)NC5=O)cc4F)CC3)CC2)ccc1Nc1ncc(C(F)(F)F)c(N2CCC[C@](C)(O)C2)n1 (some centres unmarked) | B (B (>50% -75%)) | 100 to 500
8 | Cc1cc(S(=O)(=O)N[C@H]2C[C@H](CN3CC(c4ccc(C5CCC(=O)NC5=O)c(Cl)c4)C3)C2)ccc1Nc1ncc(C(F)(F)F)c(N2CCC[C@](C)(O)C2)n1 (some centres unmarked) | B (B (>50% -75%)) | > 1000
9 | Cc1cc(S(=O)(=O)CC2CN(C3CCN(CC4CCN(c5ccc6c(c5)n(C)c(=O)n6C5CCC(=O)NC5=O)CC4)CC3)C2)ccc1Nc1ncc2cc(Cl)c(=O)n(C(C)C)c2n1 (centres unmarked) | B (B (>50% -75%)) | > 1000
10 | Cc1cc(S(=O)(=O)N[C@@H]2CCN(CC3CCN(c4ccc(C5CCC(=O)NC5=O)c(F)c4)CC3)C[C@H]2F)ccc1Nc1ncc(C(F)(F)F)c(N2CCC[C@](C)(O)C2)n1 (some centres unmarked) | A (A (>75% o)) | < 100
11 | Cc1cc(S(=O)(=O)NCCOCCNC(=O)c2ccc(Cl)c(N3CCC(=O)NC3=O)c2)ccc1Nc1ncc2cc(Cl)c(=O)n(C3CCCC3)c2n1 | D (D (<25%)) | > 1000
12 | Cc1cc(S(=O)(=O)NCCOCCNC(=O)COc2ccc(C3CCC(=O)NC3=O)cc2)ccc1Nc1ncc2cc(Cl)c(=O)n(C3CCCC3)c2n1 (centres unmarked) | A (A (>75% o)) | 100 to 500
13 | Cc1cc(S(=O)(=O)N[C@H]2CC[C@H](CC#Cc3ccc(C4CCC(=O)NC4=O)c(Cl)c3)CC2)ccc1Nc1ncc(C(F)(F)F)c(N2CCC[C@](C)(O)C2)n1 (some centres unmarked) | D (D (<25%)) | > 1000
14 | Cc1cc(S(=O)(=O)N[C@H]2C[C@H](N3CCN(CCOc4ccc(NC5CCC(=O)NC5=O)c(Cl)c4)CC3)C2)ccc1Nc1ncc(C(F)(F)F)c(N2CCC[C@](C)(O)C2)n1 (some centres unmarked) | C (C (>25% -50%)) | > 1000
15 | Cc1cc(S(=O)(=O)NCCCNC(=O)COc2ccc(C3CCC(=O)NC3=O)cc2)ccc1Nc1ncc2cc(Cl)c(=O)n(C3CCCC3)c2n1 (centres unmarked) | B (B (>50% -75%)) | > 1000
16 | Cc1cc(S(=O)(=O)C2CCN(CCC3CCN(c4cccc5c4n(C)c(=O)n5C4CCC(=O)NC4=O)CC3)CC2)ccc1Nc1ncc2c(n1)N(C1CCCC1)C(=O)C21CC1 (centres unmarked) | A (A (>75% o)) | < 100
17 | Cc1cc(S(=O)(=O)C2CC3(CCN(CC4CCN(c5ccc6c(c5F)n(C)c(=O)n6C5CCC(=O)NC5=O)CC4)CC3)C2)ccc1Nc1ncc(C(F)(F)F)c(N2CC(C)CC(C)(O)C2)n1 (centres unmarked) | A (A (>75% o)) | < 100

Row | Compound | CDK2 degradation 14 h: Average Dmax % | DC50 [nM]
18 | [2H]C([2H])([2H])c1cc(S(=O)(=O)N[C@@H]2CCN(CC3CCN(c4ccc(C5CCC(=O)NC5=O)cc4F)CC3)C[C@@H]2F)ccc1Nc1ncc(C(F)(F)F)c(N2CCC[C@](C)(O)C2)n1 (some centres unmarked) | A (A (>75% o)) | < 100
19 | Cc1cc(S(=O)(=O)N[C@@H]2CCN(CC3CCN(c4ccc(C5CCC(=O)NC5=O)cc4F)CC3)C[C@@H]2F)ccc1Nc1ncc(C(F)(F)F)c(N2CCC[C@](C)(O)C2)n1 (some centres unmarked) | A (A (>75% o)) | < 100
20 | Cc1cc(S(=O)(=O)NC23C4C5C2C2C3C4C52N2CCN(c3ccc(C4CCC(=O)NC4=O)cc3F)CC2)ccc1Nc1ncc(C(F)(F)F)c(N2CCC[C@](C)(O)C2)n1 (some centres unmarked) | A (A (>75% o)) | < 100
21 | Cc1cc(S(=O)(=O)NCCCCCNc2cccc3c2C(=O)N(C2CCC(=O)NC2=O)C3=O)ccc1Nc1ncc2cc(C(F)F)c(=O)n([C@@H]3CCC[C@@]3(C)O)c2n1 (some centres unmarked) | C (C (>25% -50%)) | > 1000
22 | Cc1cc(S(=O)(=O)N[C@H]2CC[C@H](CN3CCN(c4ccc(N5CCC(=O)NC5=O)c(Cl)c4)CC3)CC2)ccc1Nc1ncc2c(n1)N([C@@H]1CCC[C@@H](O)C1)C(=O)C21CC1 | A (A (>75% o)) | < 100
23 | Cc1cc(S(=O)(=O)N[C@H]2C[C@H](N3CCC(OCC#Cc4cccc(N5CCC(=O)NC5=O)c4C)CC3)C2)ccc1Nc1ncc(C(F)(F)F)c(N2CCC[C@](C)(O)C2)n1 | C (C (>25% -50%)) | > 1000
24 | Cc1cc(S(=O)(=O)NCC2(C)CCN(c3ccc(C4CCC(=O)NC4=O)c(Cl)c3)CC2)ccc1Nc1ncc(C(F)(F)F)c(N2CCC[C@](C)(O)C2)n1 (some centres unmarked) | D (D (<25%)) | > 1000
25 | Cc1cc(S(=O)(=O)NCCO[C@H]2CC[C@H](CN3CCC(c4ccc5c(c4)n(C)c(=O)n5C4CCC(=O)NC4=O)CC3)CC2)ccc1Nc1ncc(C(F)(F)F)c([C@H]2CC[C@@](C)(O)CC2)n1 (some centres unmarked) | A (A (>75% o)) | < 100
26 | Cc1cc(S(=O)(=O)NC23CCC(CN4CCN(c5ccc(C6CCC(=O)NC6=O)c(Cl)c5)C[C@H]4C)(CC2)OC3)ccc1Nc1ncc(C(F)(F)F)c(N2CCC[C@](C)(O)C2)n1 (some centres unmarked) | A (A (>75% o)) | < 100
27 | Cc1cc(S(=O)(=O)N[C@H]2CC[C@H](CN3CCN(c4cc(N[C@@H]5CCC(=O)NC5=O)ccc4F)CC3)CC2)ccc1Nc1ncc(C(F)(F)F)c(N2CCC[C@](C)(O)C2)n1 | A (A (>75% o)) | < 100
28 | Cc1cc(S(=O)(=O)NC23CCC(CN4CCN(c5ccc(C6CCC(=O)NC6=O)cc5F)CC4)(CC2)C3)ccc1Nc1ncc(C(F)(F)F)c(N2CCC[C@](C)(O)C2)n1 (some centres unmarked) | A (A (>75% o)) | < 100
29 | Cc1cc(S(=O)(=O)N[C@H]2CC[C@H](OC3CN(c4ccc(C5CCC(=O)NC5=O)cc4F)C3)CC2)ccc1Nc1ncc(C(F)(F)F)c(N2CCC[C@](C)(O)C2)n1 (some centres unmarked) | C (C (>25% -50%)) | > 1000
30 | CC1(O)CCN(c2nc(Nc3ccc(S(=O)(=O)N[C@H]4CC[C@H](CN5CCN(c6ccc(C7CCC(=O)NC7=O)c(F)c6)CC5)CC4)cc3F)ncc2C(F)(F)F)CC1 (some centres unmarked) | A (A (>75% o)) | < 100
31 | C[C@@]1(O)CCC[C@H]1n1c(=O)c(C(F)F)cc2cnc(NC3CCN(C(=O)CCCCCCCNc4cccc5c4C(=O)N(C4CCC(=O)NC4=O)C5=O)CC3)nc21 (some centres unmarked) | D (D (<25%)) | > 1000
32 | Cc1cc(S(=O)(=O)NC2(C)CC(N3CCN(CC4CCN(c5ccc6c(c5F)n(C)c(=O)n6C5CCC(=O)NC5=O)CC4)CC3)C2)ccc1Nc1ncc(C(F)(F)F)c(N2CCCC(C)(O)C2)n1 (single isomer, unassigned) | A (A (>75% o)) | < 100
33 | Cc1cc(S(=O)(=O)NC2CCN(c3ccc(C4CCC(=O)NC4=O)c(Cl)c3)CC2)ccc1Nc1ncc(C(F)(F)F)c(N2CCC[C@](C)(O)C2)n1 (some centres unmarked) | B (B (>50% -75%)) | > 1000
34 | Cc1cc(S(=O)(=O)N[C@H](C)CO[C@H]2CC[C@H](CN3CCN(c4cccc5c4n(C)c(=O)n5C4CCC(=O)NC4=O)CC3)CC2)ccc1Nc1ncc(C(F)(F)F)c([C@H]2CC[C@@](C)(O)CC2)n1 (some centres unmarked) | A (A (>75% o)) | < 100
